According to US6054441A, “Oxypurine nucleosides and their congeners, and acyl derivatives thereof, for improvement of hematopoiesis” (priority 1995, dated 2000):

System: Interleukin-3 dependent bone marrow cells
Conditions: PdG and dG 10 micrograms per milliliter, without IL-3

B1: IL-3: recombinant IL-3 (protein, UniProt P08700 20-152, looked up)
Interleukin-3: APMTQTTPLKTSWVNCSNMIDEIITHLKQPPLPLLDFNNLNGEDQDILMENNLRRPNLEAFNRAVKSLQNASAIESILKNLLPCLPLATAAPTRHPIHIKDGDWNEFRRKLTFYLKTLENAQAQQTTLSLAIF
% Dead Cells (24 hr): 7.5% and 7.5 ± 12.5%
% Dead Cells (40 hr): 6.5 ± 1.5%
% Dead Cells (60 hr): 10.3 ± 1.9%
% Dead Cells (84 hr): 13.0% and 13.0 ± 4.0%

Values joined by “and” are separate entries in the source; they are usually repeats but may differ in a detail not shown here. Identical values can stand only once. Like-named read-outs stand apart in the source and are kept apart here.
